Source: patent publication US20200206299A1, “INHIBITORS OF BETA-ARRESTIN-NEUROKININ 1 RECEPTOR INTERACTIONS FOR THE TREATMENT OF PAIN” (priority 2016, published 2020)

Sequences of proteins named here, by UniProt entry; tags and fusion partners are left off. A change or cut given only in a name is not applied to a line headed by its entry. Residues count along the entry.
UniProt P14600, 1-311 limits assumed: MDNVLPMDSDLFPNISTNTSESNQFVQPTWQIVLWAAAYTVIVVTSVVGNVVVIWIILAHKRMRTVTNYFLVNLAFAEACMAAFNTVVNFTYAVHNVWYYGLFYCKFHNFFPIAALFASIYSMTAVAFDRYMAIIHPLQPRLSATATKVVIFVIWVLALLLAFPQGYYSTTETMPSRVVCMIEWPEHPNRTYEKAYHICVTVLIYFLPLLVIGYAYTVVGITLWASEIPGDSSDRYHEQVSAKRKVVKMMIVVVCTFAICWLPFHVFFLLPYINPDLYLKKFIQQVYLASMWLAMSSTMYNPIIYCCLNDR

Molecular target: T1, NK1Rδ312 (Rattus norvegicus, UniProt P14600)
T1 construct: A deletion mutant NK1Rδ312 lacks the C-terminus and corresponds to a naturally occurring NK1R variant; expressed in transfected cells; host or cells: HEK293
Test: FRET biosensors of compartmentalized ERK signaling (CytoEKAR, NucEKAR) in HEK-NK1Rδ312
Format: cell-based
Settings: HEK-NK1Rδ312 cells, SP challenge
From the text: BRET probes NK1R-RLuc8, KRas-Venus, Rab5a-Venus, βarr1-YFP, βarr2-YFP have been described (Kocan, M. et al., Frontiers in endocrinology 2010, 1, 12; Lan, T. H. et al., Traffic 2012, 13, 1450-1456). CytoEKAR and NucEKAR were from Addgene (plasmids 18680, 18681 respectively). Full length and truncated δ312 rat HA-NK1R have been described (Dery, O. et al., American journal of physiology. Cell physiology 2001, 280, C1097-1106). RLuc8 fusions of these constructs were generated by removal of the stop codon by PCR and subcloning into a pcDNA3.1-RLuc8 vector.
HEK293 cells were transfected with 55 ng/well rat NK1R with N-terminal HA.11 epitope tag (HA-NK1R) or CLR plus RAMP1 and 40 ng/well FRET biosensors. FRET was assessed 48 h after transfection, following serum restriction (0.5% FBS overnight). […] FRET was assessed 72 h after transfection, following serum restriction (0.5% FBS overnight). Cells were equilibrated in HBSS at 37° C. and FRET was analyzed using a GE Healthcare INCell 2000 Analyzer. For GFP/RFP emission ratio analysis, cells were sequentially excited using a FITC filter (490/20) with emission measured using dsRed (605/52) and FITC (525/36) filters, and a polychroic optimized for the FITC/dsRed filter pair (Quad4). […] Data were analyzed as described and expressed as emission ratios relative to baseline for each cell (F/F0). […]

SP: substance P, agonist of the neurokinin 1 receptor
cytosolic ERK activation (FRET): stimulated | nuclear ERK activation (FRET): not
